The values below come from patent publication EP4834882A1, “ALDOSTERONE SYNTHETASE INHIBITOR, AND PREPARATION METHOD THEREFOR AND USE THEREOF” (dated 2026).

Structures are written as SMILES.

Data set [1] is described as follows: In vitro hepatic microsome stability. Particulars: Human hepatic microsomes. Here is the method:
The compounds of Examples 1-49 (test substances) and the positive control drug were dissolved in DMSO to prepare stock solutions (10 mM). The stock solutions were diluted with acetonitrilewater (1:1, v/v) to obtain 100 µM solutions, which was further diluted with 0.1 M potassium phosphate buffer to obtain working solutions (30 µM).
NADPH powder was weighed and dissolved in 0.1 M potassium phosphate buffer to obtain a 5 mg/mL solution.
Hepatic microsomes from each species (20 mg/mL) were diluted with 0.1 M potassium phosphate buffer to parepare 0.8 mg/mL hepatic microsome working solutions.
25 µL of the test substance or positive control drug working solution was added to 475 µL of the hepatic microsome working solution and mixed thoroughly. The mixture was aliquoted into a 96-well plate at 30 µL/well (n=2). For the 0 min samples, 150 µL of internal standard acetonitrile solution was added to precipitate proteins, followed by the addition of 15 µL of NADPH solution, and these samples were then stored in a refrigerator at 4°C. Other samples were pre-incubated at 37°C for 10 min. For the 20 min and 60 min samples, 15 µL of NADPH solution was added to initiate the reaction. For samples without NADPH, 15 µL of potassium phosphate buffer was added instead. All samples were then incubated at 37°C. Upon reaching the designated reaction time, 150 µL of internal standard acetonitrile solution was added to precipitate proteins.
The precipitated samples were vortexed and then centrifuged at 4000 rpm for 5 min. 100 µL of purified water was added to the supernatant , followed by LC-MS analysis.
The peak area ratio of the analyte to the internal standard was used to calculate the relative percentage of the compound remaining after incubation (remaining rate %) and for exponential function fitting. The calculation formula was as follows: [formula] [formula] [formula]

A short description of data set [2]: Pharmacokinetic study in cynomolgus monkeys. Particulars: Cynomolgus monkey, ig. The protocol: • Cynomolgus monkeys: male, 180-250g, purchased from Guangxi Grandforest Scientific Primate Company, Ltd. • Reagents: DMSO (dimethyl sulfoxide), PEG400, saline, heparin, acetonitrile, formic acid, propranolol (internal standard) are all commercially available. • Instrument: AB SCIEX 7500.
The compound was weighed and dissolved in a DMSO-PEG-400-saline (5:60:35, v/v/v) system. Following intragastric administration to cynomolgus monkeys, 200 µL of venous blood was collected into EDTA-K2 anticoagulant tubes at 30 min, 60 min, 90 min, 2 h, 3 h, 5 h, 8 h, and 24 h. The blood samples were centrifuged at 12,000 rpm for 2 min, and the plasma was collected and stored at -80°C for subsequent analysis. An appropriate amount of the test compound was accurately weighed and dissolved in DMSO to a concentration of 2 mg/mL as a stock solution. Appropriate volumes of the compound stock solution were accurately pipetted and diluted with acetonitrile to prepare a series of standard solutions. A series of standard solutions were prepared at concentrations equivalent to plasma concentrations of 0.3, 1, 3, 10, 30, 100, 300, 1000, and 3000 ng/mL by accurately pipetting 10 µL of each standard solution and adding it to 90 µL of blank plasma, followed by vortexing to mix. Quality control samples were prepared at plasma concentrations of 2.4, 120, and 2400 ng/mL. Duplicate samples were analyzed for each concentration , and the standard curve was established. Subsequently, 30 µL aliquot of plasma was taken, and 150 µL of acetonitrile solution containing the internal standard propranolol (50 ng/mL) was added. After vortexing to mix, 100 µL of purified water was added, and the mixture was vortexed again to mix. It was then centrifuged at 4000 rpm for 5 minutes, and the supernatant was collected for LC-MS analysis. The LC-MS detection conditions were as follows: Chromatographic column: YMC Triart C18, 50×3.0mm, 2.1µm. Mobile phase: gradient elution with a mixture of water (containing 0.1% formic acid) and acetonitrile as described in the table below:
After the plasma concentration was determined by LC-MS, the pharmacokinetic parameters were calculated using WinNonlin 6.1 software with a non-compartmental model, and the results are shown in Table 4. Table 4 Pharmacokinetic results of the compounds of the present invention in Cynomolgus monkey

Regarding `CCC(=O)N[C@@H]1CCCc2c(-c3ccc4c(C#N)nccc4c3)cncc21`, the “T1/2” value in data set [1] (with NADPH, 37°C) turned out to be 31.8 h; in data set [2] (0.05 mg/kg) it was 6.39 h; in data set [2] (20 mg/kg), 5.63 h. This compound showed an ER in data set [1] (slow metabolism ER<0.3, moderate 0.3<ER<0.7, fast ER>0.7) of 0.04. Further, the AUClast in data set [2] (0.05 mg/kg) was determined as 292 ng·h/mL; in data set [2] (20 mg/kg), 128500 ng·h/mL. Besides, the Cmax in data set [2] (0.05 mg/kg) amounted to 33.8 ng/mL; in data set [2] (20 mg/kg), 15000 ng/mL.
